# Test results published in paper PMC7408396, “IPEC-J2 rMdr1a, a New Cell Line with Functional Expression of Rat P-glycoprotein Encoded by Rat Mdr1a for Drug Screening Purposes” (Pharmaceutics, 2020).
# Chains of the proteins cited; added tags and fusions are not shown.
# UniProt P08183, whole entry: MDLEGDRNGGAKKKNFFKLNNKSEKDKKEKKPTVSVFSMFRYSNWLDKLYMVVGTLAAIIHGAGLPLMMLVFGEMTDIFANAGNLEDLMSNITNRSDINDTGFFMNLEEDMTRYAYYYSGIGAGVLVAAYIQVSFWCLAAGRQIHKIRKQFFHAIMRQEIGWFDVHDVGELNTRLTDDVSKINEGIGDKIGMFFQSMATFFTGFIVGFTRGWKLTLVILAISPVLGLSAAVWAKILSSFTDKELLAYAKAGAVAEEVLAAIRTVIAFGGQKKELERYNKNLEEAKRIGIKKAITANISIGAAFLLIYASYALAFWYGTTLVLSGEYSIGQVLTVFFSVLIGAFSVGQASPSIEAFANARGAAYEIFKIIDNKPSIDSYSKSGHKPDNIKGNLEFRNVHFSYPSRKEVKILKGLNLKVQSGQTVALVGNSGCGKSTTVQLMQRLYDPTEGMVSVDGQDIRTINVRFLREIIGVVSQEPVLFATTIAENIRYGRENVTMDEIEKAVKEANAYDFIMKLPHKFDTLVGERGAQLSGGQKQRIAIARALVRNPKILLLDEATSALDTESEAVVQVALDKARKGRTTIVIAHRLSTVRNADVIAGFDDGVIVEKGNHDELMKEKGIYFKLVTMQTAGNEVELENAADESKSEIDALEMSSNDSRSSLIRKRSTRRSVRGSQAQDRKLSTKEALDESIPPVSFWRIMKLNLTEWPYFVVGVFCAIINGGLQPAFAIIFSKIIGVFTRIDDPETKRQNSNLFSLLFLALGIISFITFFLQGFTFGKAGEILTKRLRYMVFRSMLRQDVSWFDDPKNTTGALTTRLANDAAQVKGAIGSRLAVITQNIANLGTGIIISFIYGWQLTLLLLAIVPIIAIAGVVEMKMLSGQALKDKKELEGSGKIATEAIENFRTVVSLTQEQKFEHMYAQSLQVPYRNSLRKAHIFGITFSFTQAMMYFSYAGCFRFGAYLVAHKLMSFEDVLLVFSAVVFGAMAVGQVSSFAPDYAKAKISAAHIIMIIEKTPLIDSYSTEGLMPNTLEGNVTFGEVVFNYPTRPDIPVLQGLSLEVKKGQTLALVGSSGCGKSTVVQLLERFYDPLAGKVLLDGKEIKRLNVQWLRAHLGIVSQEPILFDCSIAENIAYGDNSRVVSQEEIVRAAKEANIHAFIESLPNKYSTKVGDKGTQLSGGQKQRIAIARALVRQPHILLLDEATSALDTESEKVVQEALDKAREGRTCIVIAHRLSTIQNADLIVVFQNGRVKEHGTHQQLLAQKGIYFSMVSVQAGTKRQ
# Several values for one entry are separate records, joined by “and”; a condition that tells them apart may be missing. Equal values may be shown once.
# Columns and labels:
# human P-gp [1] = biological target: T1, human P-gp (Homo sapiens, UniProt P08183); assay: Bidirectional transport across IPEC-J2 MDR1 cell monolayers; assay type: in vitro ADME; parameters: expressed in transfected cells; host or cells: IPEC-J2 (porcine intestinal epithelial cells), previously established IPEC-J2 MDR1 line; details: Figure 5 comparison series
# Method: The cell monolayers were washed and pre-incubated in transport buffer consisting of 10 mM HEPES, 0.05% BSA and 0.038% sodium bicarbonate in HBSS pH 7.4 for 15 min at 37 °C on a shaking table (Unimax 2010, Heidolph, Schwabach, Germany) with a rotation of 75–90 rpm. The buffer was removed, and the transport experiments were initiated by the addition of donor solution containing radio-labelled compound in transport buffer in a concentration of 0.5 or 1 μ Ci/mL to either the apical or the basolateral chamber. […] Receiver samples were collected after 15, 30, 45, 60, 90 and 120 min from the basolateral (100 µL) or the apical chamber (50 µL), respectively.
# Based on data from transport experiments, the apparent permeability coefficients (Papp) were calculated using Equation (1):(1) Papp = J/C0 = Qt/C0At where J denotes the steady-state flux (nmol·cm^−2·min^−1), C0 is the initial concentration in the donor compartment, A is the cross-sectional area of the permeable inserts (1.13 cm^2) and Qt represents the accumulated amount of drug in the receiver compartment at time t in minutes (corrected for the dilution arising from replacement of the sampled volume with blank transport buffer).
# human P-gp [2] = biological target: T1, human P-gp; parameters: expressed in transfected cells; host or cells: IPEC-J2 (porcine intestinal epithelial cells), previously established IPEC-J2 MDR1 line; method as in PMID 27194478; details: MDCK II MDR1 cell monolayers; cited from earlier work
compound,measurement,setting,value
Cc1cc2c(s1)Nc1ccccc1N=C2N1CCN(C)CC1 [olanzapine],efflux ratio,human P-gp [1],1.8
same,efflux ratio (ER),human P-gp [2],> 3 and 4.9
